From patent US20250319053A1 (Dana-Farber, published 2025) come the findings set out here.

The assay has as its target actin, endogenous in human PDAC2 cells (human, UniProt P60709 2-375). Put plainly: IP with Flag antibody from PDAC2 cells stably expressing Flag-HIP1R S929A, immunoblot.

B1: Flag-HIP1R S929A mutant (human HIP1R with C-terminal DYK tag), stably expressed in PDAC2 cells (other)
chain: MNSIKNVPARVLSRRPGHSLEAEREQFDKTQAISISKAINTQEAPVKEKHARRIILGTHHEKGAFTFWSYAIGLPLPSSSILSWKFCHVLHKVLRDGHPNVLHDCQRYRSNIREIGDLWGHLHDRYGQLVNVYTKLLLTKISFHLKHPQFPAGLEVTDEVLEKAAGTDVNNIFQLTVEMFDYMDCELKLSESVFRQLNTAIAVSQMSSGQCRLAPLIQVIQDCSHLYHYTVKLLFKLHSCLPADTLQGHRDRFHEQFHSLRNFFRRASDMLYFKRLIQIPRLPEGPPNFLRASALAEHIKPVVVIPEEAPEDEEPENLIEISTGPPAGEPVVVADLFDQTFGPPNGSVKDDRDLQIESLKREVEMLRSELEKIKLEAQRYIAQLKSQVNALEGELEEQRKQKQKALVDNEQLRHELAQLRAAQLEGERSQGLREEAERKASATEARYNKLKEKHSELVHVHAELLRKNADTAKQLTVTQQSQEEVARVKEQLAFQVEQVKRESELKLEEKSDQLEKLKRELEAKAGELARAQEALSHTEQSKSELSSRLDTLSAEKDALSGAVRQREADLLAAQSLVRETEAALSREQQRSSQEQGELQGRLAERESQEQGLRQRLLDEQFAVLRGAAAEAAGILQDAVSKLDDPLHLRCTSSPDYLVSRAQEALDAVSTLEEGHAQYLTSLADASALVAALTRFSHLAADTIINGGATSHLAPTDPADRLIDTCRECGARALELMGQLQDQQALRHMQASLVRTPLQGILQLGQELKPKSLDVRQEELGAVVDKEMAATSAAIEDAVRRIEDMMNQARHASSGVKLEVNERILNSCTDLMKAIRLLVTTSTSLQKEIVESGRGAATQQEFYAKNSRWTEGLISASKAVGWGATQLVEAADKVVLHTGKYEELIVCSHEIAASTAQLVAASKVKANKHAPHLSRLQECSRTVNERAANVVASTKSGQEQIEDRDTMDFSGLSLIKLKKQEMETQVRVLELEKTLEAERMRLGELRKQHYVLAGASGSPGEEVAIRPSTAPRSVTTKKPPLAQKPSVAPRQDHQLDKKDGIYPAQLVNY
notes: not shown: C-terminal DYK (Flag) tag from pcDNA3.1+/C-(K)-DYK
On to B1, for which the binding result is “no binding”.
